# Assay: Octanol-to-water partitioning assay
# Assay type: physicochemical
# Conditions: 1-octanol / citric acid pH 5, room temperature
# Protocol: FIG. 4 illustrates the octanol to water distribution of glucuronides and glucuronide-mE. Glucuronides and glucuronide-mE were incubated overnight in immiscible aqueous and organic phases (citric acid pH 5 and 1-octanol) under gentle shaking at room temperature. Samples from each phase were analyzed to characterize the distribution of the compounds. n=3-5
# FIG. 5 illustrates the Log P of glucuronides and glucuronide-mE compounds in each phase of 1-octanol and citric acid pH 5 following the formula: log Poctanol/water=log ([solute]octanol/[solute]water). n=3-5. Error bars, SD
# 9-aminocamptothecin glucuronide (9AC-G), 5,6-dihydro-4H-benzo[de]quinoline-camptothecin-β-D-glucuronide (BQC-G) and 4-methylumbelliferyl-β-D-glucuronide (4MU-G) can be incubated in methanol in the presence of a strong acid (sulfuric acid) as a catalyzer (FIG. 2).
# Distribution of the different compounds were measured by dilution in a 1:1 volume of octanol and 100 mM citric acid buffer at pH 5 (FIG. 4). The solutions were gently stirred for 24 hours at room temperature, spun down at 2,500×g and glucuronides or glucuronide-mE in each phase was quantified by HPLC and the partition coefficients were calculated as log Poctanol/water=log ([solute]octanol/[solute]water) ([…]).
substance,measurement,value
"5,6-dihydro-4H-benzo[de]quinoline camptothecin glucuronide methylester [BQC-GmE]",partition versus corresponding glucuronide,increased partition into an organic phase

# — patent publication US11013690B2, “Esterification/saponification-based method for liposomal encapsulation of hydrophilic glucuronides” (priority 2016, dated 2021)
